The assay has as its system Mus musculus. Description: Antiinflammatory activity in CD1 mouse ear dermatitis model assessed as inhibition of Croton oil-induced ear edema administered topically per cm'2 of ear measured after induction of dermatitis relative to untreated control. It is filed as functional. In a few lines: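 Male CD-1 mice (28–32 g), anesthetized with ketamine 145 mg/kg i.p.; right ear (about 1 cm2) given 80 μg croton oil in 15 μL acetone, with test substance co-applied in acetone; left ear left untreated. Controls received irritant only. 6 mm punches taken from both ears; edema = weight difference treated minus untreated; % inhibition vs controls. ID50 by graphic interpolation of log dose–effect curves; ANOVA with Dunnett's test.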

Regarding `C/C=C/c1ccc2c(c1)[C@@H](C)[C@H](c1ccc(O)cc1)O2`, the ID50 is recorded as 0.31 umol/cm2.

These data come from ChEMBL document CHEMBL2146414, “Lignan derivatives from Krameria lappacea roots inhibit acute inflammation in vivo and pro-inflammatory mediators in vitro” (J Nat Prod, 2011).
